# Results from ChEMBL document CHEMBL1147585, “Potent imidazole and triazole CB1 receptor antagonists related to SR141716” (Bioorg Med Chem Lett, 2004).
# Sequences of proteins named here, by UniProt entry; tags and fusion partners are left off.
# UniProt P21554, whole entry: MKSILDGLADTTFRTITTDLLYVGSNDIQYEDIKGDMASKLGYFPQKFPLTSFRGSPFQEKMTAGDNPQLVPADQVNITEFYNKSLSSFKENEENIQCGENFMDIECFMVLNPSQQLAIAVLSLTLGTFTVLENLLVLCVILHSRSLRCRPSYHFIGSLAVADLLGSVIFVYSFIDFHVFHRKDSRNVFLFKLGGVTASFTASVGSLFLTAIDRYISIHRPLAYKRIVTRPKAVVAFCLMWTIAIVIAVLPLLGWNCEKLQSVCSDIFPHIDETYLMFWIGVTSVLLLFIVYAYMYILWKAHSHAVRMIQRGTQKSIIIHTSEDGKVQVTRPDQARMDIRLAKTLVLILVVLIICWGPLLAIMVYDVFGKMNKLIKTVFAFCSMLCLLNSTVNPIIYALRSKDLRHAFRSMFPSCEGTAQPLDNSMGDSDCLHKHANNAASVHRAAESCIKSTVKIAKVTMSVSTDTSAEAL
# Target: Cannabinoid receptor 1 (Homo sapiens, UniProt P21554)
smiles,measurement,value
COc1cc(Cl)ccc1-c1nc(C(=O)NC(C)C)nn1-c1ccc(Cl)cc1Cl,Ki,350 nM
